Measured values published in US8927504B2, “Combined use of dipeptidyl peptidase 4 inhibitor and sweetener” (Mitsubishi Tanabe Pharma Corporation, priority 2007, dated 2015).

Tested on: active GLP-1 in plasma
Experiment: GLP-1 secretion-stimulating action by combined use of DPP4 inhibitor and sweetener (3), Example 5
Format: in vivo, mouse
Settings: C57BL/6J mice, mean ± SEM, n = 5
Procedure: Purified water was administered orally (10 mL/kg) as a control.
D-mannitol (Wako Pure Chemical Industries, Ltd.) at 3 g/kg, melibiose (Wako Pure Chemical Industries, Ltd.) at 6 g/kg or acesulfame K (Wako Pure Chemical Industries, Ltd.) at 3 g/kg was used as sweetener and administered orally (10 mL/kg). Purified water was administered orally (10 mL/kg) as a control.

SMILES | Increase in AUC of Plasma active GLP-1 (DPP4 inhibitor 1 mg/kg orally combined with D-mannitol 3 g/kg orally) | Increase in AUC of Plasma active GLP-1 (DPP4 inhibitor 1 mg/kg orally combined with melibiose 6 g/kg orally) | Increase in AUC of Plasma active GLP-1 (DPP4 inhibitor 10 mg/kg orally alone (purified water instead of sweetener)) | Increase in AUC of Plasma active GLP-1 (DPP4 inhibitor 10 mg/kg orally combined with D-mannitol 3 g/kg orally) | Increase in AUC of Plasma active GLP-1 (DPP4 inhibitor 10 mg/kg orally combined with acesulfame K 3 g/kg orally) | Increase in AUC of Plasma active GLP-1 (DPP4 inhibitor 10 mg/kg orally combined with melibiose 6 g/kg orally)
Cn1c(=O)cc(N2CCC[C@@H](N)C2)n(Cc2ccccc2C#N)c1=O [Alogliptin, 6-[(3R)-3-aminopiperidin-1-yl-1-(2-cyanobenzyl)-3-methylpyrimidin-2,4(1H,3H)-dione], reference compound] | 136 ± 7 pM·h | 172 ± 10 pM·h |  |  |  | 
N[C@@H](CC(=O)N1CCn2c(nnc2C(F)(F)F)C1)Cc1cc(F)c(F)cc1F [Sitagliptin, (3R)-3-amino-1-[9-(trifluoromethyl)-1,4,7,8-tetraazabicyclo[4.3.0]nona-6,8-dien-4-yl]-4-(2,4,5-trifluorophenyl)butan-1-one, reference compound] |  |  | 79 ± 1 pM·h | 166 ± 9 pM·h | 148 ± 13 pM·h | 218 ± 18 pM·h
